Measured affinities in a library of Ab-14 light chain variants

Binding partner: SARS-CoV-2 spike HR2 peptide, sequence PDVDLGDISGINAS.

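In library AAYL50, one, two or three CDR residues were substituted; doubles and triples were drawn at random. The scFvs were displayed on barcoded MATa yeast, the peptide on MATalpha yeast. The frequency of each diploid, read from paired DNA barcodes, reflects how well the two displayed proteins bind. The ratio of observed to expected reads was calibrated, replicate by replicate, on BCL2-family standards whose Kd was known from biolayer interferometry. There are three technical replicates.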

The variants keep the heavy chain, the linker and the frameworks of Ab-14 (scFv order VH, the linker GGGGSGGGGSGGGGS, VL).
VH: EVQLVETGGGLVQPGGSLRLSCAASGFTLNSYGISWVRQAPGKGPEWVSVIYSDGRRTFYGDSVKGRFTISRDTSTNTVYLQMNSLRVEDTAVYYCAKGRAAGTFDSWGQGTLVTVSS
VL: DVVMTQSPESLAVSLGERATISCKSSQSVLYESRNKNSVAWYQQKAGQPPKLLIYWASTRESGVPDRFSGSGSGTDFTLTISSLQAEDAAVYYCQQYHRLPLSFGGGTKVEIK

Positions count from residue 1 of the parent VL; S28F puts F in place of S.
Affinities are written as log10 Kd with Kd in nM; a lower number is a better binder.
Replicates are averaged; those with no signal do not enter the mean.
"nd" means that the variant was in the library but no mating with the target was seen in any replicate; the authors take this as a sign of poor binding, and no number exists.
Empty control strains, which show no peptide, gave a signal in 18% of pairings with library AAYL50; the median was 4.19 and 95% of these signals were weaker than 2.99. No background was subtracted.

changes | log10 Kd (nM), mean | seen in
S28F S62F | 3.27 | 1/3
N35H W56N L100F | 0.03 | 3/3
S38K P101F S103T | nd | 0/3
A57I Y97K | 5.22 | 2/3
N35D S38M Y97D | 5.19 | 1/3
S28Y A57R T59V | nd | 0/3
N35D E61P H98V | 0.98 | 3/3
S33M K36M P101A | nd | 0/3
K36I E61I | 1.23 | 3/3
S38Y S58F L102E | nd | 0/3
S28E V39C Q95I | 2.56 | 1/3
E32V R34F | 4.22 | 3/3
S62R L100F P101A | 3.24 | 1/3
S28M S33N P101N | nd | 0/3
R34E N35H S58L | 1.72 | 3/3
Y31L N35F S103Q | 1.92 | 3/3
R34G A40I T59I | 3.10 | 1/3
S33W K36A | 1.29 | 3/3
S28R N37R H98A | 1.67 | 3/3
K24E S62K H98I | 3.28 | 3/3
N37D A40K Q95T | nd | 0/3
K24C S26W L100Y | 4.63 | 2/3
S33Y E61R | 3.20 | 2/3
E61A Q95N L102T | 4.12 | 2/3
S33K Q95D | 2.68 | 3/3
K24P P101W L102Q | 4.34 | 1/3
L30I T59A R99E | nd | 0/3
A40V T59N L102A | 5.01 | 1/3
L30M E61W P101E | 2.57 | 3/3
K24C A40R H98C | nd | 0/3
E32I S33E A40C | 3.87 | 1/3
L30Y E61M | 0.97 | 3/3
S33N R34N A40P | 5.13 | 1/3
R34C S58M E61Y | 2.61 | 1/3
K24Y N37Y S103E | 4.48 | 1/3
N37C T59Q E61G | 2.11 | 3/3
Q27Y Y31T W56H | 0.35 | 3/3
S33P K36Y | 1.59 | 3/3
K24W Q95K S103Q | 2.08 | 1/3
K24G T59P S103W | 3.39 | 1/3
S58T H98K S103N | 1.24 | 3/3
V29N N35P A57V | 3.12 | 3/3
N35A W56A Q96I | 0.90 | 3/3
S25T S58T Q95K | 1.07 | 3/3
K24D N35A K36M | 2.22 | 3/3
S26P N35C W56A | 0.39 | 3/3

Picked from the list: the 8 lowest averages where every replicate gave a value.

| changes | log10 Kd (nM), mean | seen in |
|---|---|---|
| N35H W56N L100F | 0.03 | 3/3 |
| Q27Y Y31T W56H | 0.35 | 3/3 |
| S26P N35C W56A | 0.39 | 3/3 |
| N35A W56A Q96I | 0.90 | 3/3 |
| L30Y E61M | 0.97 | 3/3 |
| N35D E61P H98V | 0.98 | 3/3 |
| S25T S58T Q95K | 1.07 | 3/3 |
| K36I E61I | 1.23 | 3/3 |

Parent in this assay: reference entry 0.65, copy in this library 1.68.

Values reported by Engelhart et al. 2022, doi:10.1038/s41597-022-01779-4 (FLAb copy).